Experimental data reported in patent US20190321291A1, “3D Printing and Drug Delivery” (Biogelx Limited, priority 2016, published 2019).

Test: Drug release assay from Fmoc-FF/S hydrogel into PBS release buffer, HPLC analysis
Format: physicochemical
Details: for Concentration (ug/mL) Gel: Fmoc-FF/S gel
Protocol: (§1) An 1100 Series high-performance liquid chromatography pump (Agilent, USA) was used for the analysis which was performed using acetonitrile with 0.1% TFA and water with 0.1% TFA. […] This concentration was kept constant until 16 mins; after that the gradient was decreased, reaching 40% (v/v) acetonitrile in water at 19 mins. The data was then processed manually using the software ‘Agilent Chemstation.’
The triplicate samples of release buffer were analysed by HPLC, and for the peaks corresponding to each model drug compound the peak area was measured. The average peak area was recorded, and using a standard curve prepared for each compound the concentration of each was determined.
At each of the specified time points the release buffer remaining in the wells was transferred to HPLC vials and stored at 4° C. until HPLC analysis was performed.
as §1, with “mins when” for “mins; after that”, “decreased to” for “decreased, reaching”
The triplicate samples of release buffer were analysed by HPLC, and for the peaks corresponding to each model drug compound the peak area was measured. The average peak area was recorded, and using standard curve prepared for each compound the concentration of each was determined.

C=C[C@H]1C[N@]2CC[C@H]1C[C@@H]2[C@@H](O)c1ccnc2ccc(OC)cc12 [Quinidine]
Concentration (ug/mL) Control (30 min, 2 mM control solution of drug in PBS, release buffer PBS 37° C.): 7.26 µg/mL
Concentration (ug/mL) Gel (6 h): 3.32 µg/mL
Concentration (ug/mL) Gel (9 h): 2.25 µg/mL
